Laboratory results as given in PMC6588608 (Communications Biology, 2019).

Columns and labels:
[1] = target: T1, constitutively active ETB receptor (ETB-L3.43Q) (Homo sapiens, UniProt P24530, L192Q); assay: TGFα shedding assay, antagonist activity against ET-1 (0.5 nM)-induced AP-TGFα release
T1 sequence (P24530 27-442 L192Q): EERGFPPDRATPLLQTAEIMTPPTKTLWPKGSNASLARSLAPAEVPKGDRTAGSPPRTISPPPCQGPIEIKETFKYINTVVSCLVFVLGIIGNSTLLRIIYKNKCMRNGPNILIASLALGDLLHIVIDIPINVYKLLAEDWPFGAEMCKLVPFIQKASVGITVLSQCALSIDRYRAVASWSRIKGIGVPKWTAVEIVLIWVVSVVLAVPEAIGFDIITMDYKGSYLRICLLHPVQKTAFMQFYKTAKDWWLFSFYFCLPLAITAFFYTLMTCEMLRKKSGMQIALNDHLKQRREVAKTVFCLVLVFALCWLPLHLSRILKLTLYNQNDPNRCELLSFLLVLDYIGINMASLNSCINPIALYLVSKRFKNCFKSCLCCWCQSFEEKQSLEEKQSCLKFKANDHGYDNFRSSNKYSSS

[2] = target: T2, thermostabilized ETB receptor (ETB-Y4) (Homo sapiens, UniProt P24530, I381A/K270A/R124Y/S342A); assay: as above
T2 sequence (P24530 27-442 R124Y/K270A/S342A/I381A): T1 sequence (P24530 27-442 L192Q) with R98Y, Q166L, K244A, S316A, I355A

[3] = target: T3, ETB-L192^3.43Q (constitutively active ETB receptor) (Homo sapiens, UniProt P24530, L192Q); assay: TGFα shedding assay, inverse agonist activity (4 h incubation)
T3 sequence (P24530 27-442 L192Q): T1 sequence (P24530 27-442 L192Q)

ETB receptor (wild type) = target: T4, ETB receptor (wild type) (Homo sapiens, UniProt P24530); assay: TGFα shedding assay, antagonist activity against ET-1 (0.5 nM)-induced AP-TGFα release; assay type: cell-based; conditions: for IC50: ET-1 0.5 nM
T4 construct: expressed in transfected cells; host or cells: HEK293A
T4 sequence (P24530 27-442): T1 sequence (P24530 27-442 L192Q) with Q166L
Protocol: The TGFα shedding assay, which measures the activation of Gq/11 and G12/13 signaling, was performed as described previously. Briefly, a plasmid encoding an ETB construct with an internal FLAG epitope tag or an ETA construct was transfected, together with a plasmid encoding alkaline phosphatase (AP)-tagged TGFα (AP-TGFα), into HEK293A cells by using a polyethylenimine (PEI) transfection reagent (1 µg ETR plasmid, 2.5 µg AP-TGFα plasmid, and 25 µl of 1 mg per ml PEI solution per 10-cm culture dish). […] The AP-TGFα release signals were fitted to a four-parameter sigmoidal concentration-response curve, using the Prism 7 software (GraphPad Prism), and the pEC50 (equal to −log10 EC50) and Emax values were obtained.

IC50 ([1]; IC50, Supplementary Fig. 5d): 22 nM | IC50 ([1]; pIC50 ± SEM, Supplementary Fig. 5d): 21.4 nM | IC50 [2]: 89 nM | EC50 ([3]; EC50, Table 3, reduction of basal activity for inverse agonists): 0.92 nM | EC50 ([3]; pEC50 (mean ± SEM), Table 3): 0.933 nM | IC50 (ETB receptor (wild type); Fig. 1a, HEK293 cells, read-out: pIC50 ± SEM ETB (converted)): 35.5 nM | IC50 (ETB receptor (wild type); Supplementary Fig. 5d, ETB (WT), read-out: IC50): 52 nM | IC50 (ETB receptor (wild type); Table 2, ETB-WT, n=6, read-out: pIC50 (mean ± SEM) (converted)): 21.4 nM | Kb (ETB receptor (wild type); Table 2, ETB-WT, read-out: pKB (mean ± SEM) (converted)): 2.4 nM
Compound: Cc1cc(C)cc(C(=O)N(C)C(Cc2ccc(-c3ccccc3)cc2)C(=O)NC(Cc2c[nH]c3ccccc23)C(=O)O)c1 (stereo not drawn) [IRL2500]

Changes are numbered by the printed parent chain. Read-outs that look alike come from different tables or passages of the source.
